SMILES strings stand for the structures. Only a part is listed here, and it is no random draw. Activity calls are given as the source filed them. Rule as the data show it: active = inhibition above about 60%; inactive = the rest.

Amino acid sequences for entries named in this document (tags omitted). A change or cut given only in a name is not applied to a line headed by its entry.
UniProt P51452: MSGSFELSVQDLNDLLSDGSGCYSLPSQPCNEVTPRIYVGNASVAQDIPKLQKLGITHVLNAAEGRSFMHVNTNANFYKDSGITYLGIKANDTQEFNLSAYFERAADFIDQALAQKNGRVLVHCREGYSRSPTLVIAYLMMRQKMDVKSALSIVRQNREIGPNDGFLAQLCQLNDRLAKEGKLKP

This test deals with Dual specificity protein phosphatase 3 (Homo sapiens) (UniProt P51452). The experiment in a line: human DUSP3 activity blockers – biochemical, colorimetric, HTS, primary screen (AID 1992). The conditions noted are these: recombinant VHR phosphatase, colorimetric substrate read-out; at 20 µM; stronger effect = higher value.
For `CCCCOP(=O)(OCCCC)SC`, the inhibition – broadly, the relative decrease from the control value, in per cent – is inactive: 1.3%.

Regarding `COC(=O)NC(Sc1ccc(Cl)cc1)C(Cl)Cl` (stereo not given), the inhibition was inactive: -13.5%.

With `CCOC(=O)NC(Sc1nc2ccccc2o1)C(Cl)(Cl)Cl` (stereo not given), the inhibition was inactive: 28.7%.

In the case of `O=CNC(Sc1nc2ccccc2o1)C(Cl)(Cl)Cl` (stereo not given), the inhibition is inactive: 4.2%.

Consider `CCCCSP(=O)(OCC(C)C)OCC(C)C`, for which the inhibition is inactive: -8.3%.

`Cc1ccc(SC(NC(=O)c2ccccc2)C(Cl)Cl)cc1` (stereo not given): the inhibition was inactive: -19.1%.

Take `Cc1cc(C)nc(SC(NC(=O)c2ccccc2)C(Cl)(Cl)Cl)n1` (stereo not given): the inhibition is inactive: 13.1%.

Consider `O=C(NC(SC1=NCCS1)C(Cl)(Cl)Cl)c1ccc(I)cc1` (stereo not given), for which the inhibition was inactive: 11.9%.

As for `O=C(CF)NC(Sc1ccc(Cl)cc1)C(Cl)(Cl)Cl` (stereo not given), the inhibition was inactive: -4.7%.

For the compound `COC(=O)c1ccc(OP(=O)(Oc2ccc(Cl)cc2C)SCC(C)C)cc1` (stereo not given), the inhibition is inactive: 1.7%.

For the origin of these results see PubChem BioAssay AID1992 (Sanford-Burnham Center for Chemical Genomics, 2009).
